Earlier results, collected in US8394377B2, “Methods for treating cancer using combination therapy” (The Regents of the University of Colorado, priority 2008, dated 2013).

Legend:
[1] = test system: metastatic, HER-2-overexpressing breast cancers; details: combined with cytotoxic chemotherapeutics; cited from earlier work
tumor cell lines = tumor cell lines in the presence of human peripheral-blood mononuclear cells; cited from earlier work

For “HERCEPTIN: recombinant DNA-derived humanized monoclonal antibody that selectively binds to the extracellular domain of the HER-2 proto-oncogene”, the survival [1] is listed as “improve survival” and the antibody-dependent cellular cytotoxicity (tumor cell lines) is listed as “can induce antibody-dependent cellular cytotoxicity”.
